# Laboratory results reported in PubChem BioAssay AID1423 (NMMLSC, 2008).
# Amino acid sequences for entries named in this document (tags omitted).
# UniProt P09471, whole entry, looked up: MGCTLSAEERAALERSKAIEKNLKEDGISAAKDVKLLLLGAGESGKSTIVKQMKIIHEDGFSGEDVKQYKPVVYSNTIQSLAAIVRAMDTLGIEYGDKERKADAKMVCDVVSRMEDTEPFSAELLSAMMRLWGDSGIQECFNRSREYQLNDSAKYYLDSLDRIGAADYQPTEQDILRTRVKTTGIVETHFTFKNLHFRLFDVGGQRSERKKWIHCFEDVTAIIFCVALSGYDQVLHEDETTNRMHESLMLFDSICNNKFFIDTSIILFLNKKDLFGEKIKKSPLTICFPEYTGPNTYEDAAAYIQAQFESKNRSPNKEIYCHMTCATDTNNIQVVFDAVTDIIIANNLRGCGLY
# Only a part is listed here, and it is no random draw. Calls of active or inactive are those of the source. Cut-off read from the data, not from the text of the source: active = response below about 60% or above about 140%; inactive = in between.
# Target: Guanine nucleotide-binding protein G(o) subunit alpha (Homo sapiens) (UniProt P09471)
# Assay: compounds changing RGS8 association with Galphao – biochemical, multiplexed bead flow cytometry, primary screen (AID 1423);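 note: Galphao activated as the GDP aluminium fluoride complex binding bead-coupled RGS8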
# Settings: at 10 µM, actives lie on both sides
row,SMILES,response (percent of control binding)
1,NC(=O)Nc1ccc([As](=O)(O)O)cc1,inactive: 100%
2,CN(C(=O)Cc1ccccc1)[C@@H]1CC[C@]2(CCCO2)C[C@H]1N1CCCC1,inactive: 91.6%
3,CCOP1(=S)c2c(C)nn(CCC#N)c2N=C(c2ccc(F)cc2)N1C (stereo not given),inactive: 101%
4,O=[N+]([O-])c1ccc2c(c1)nnn2O,inactive: 111%
5,CCOP1(=S)c2c(C)nn(CCC#N)c2N=C(c2ccccc2F)N1C (stereo not given),inactive: 103%
6,O=P(Nc1nccs1)(c1ccccc1)c1nc2ccccc2s1 (stereo not given),inactive: 102%
7,O=P(Nc1nccs1)(Oc1ccccc1)Oc1ccccc1,inactive: 94%
8,CS(=O)(=O)c1cc([N+](=O)[O-])c2no[n+]([O-])c2c1,inactive: 66%
9,Nc1ccccc1[As](=O)(O)c1ccccc1,inactive: 103%
10,O=C(O)COc1ccc([As](=O)(O)O)cc1[N+](=O)[O-],inactive: 100%
11,Nc1cccc2c([As](=O)(O)O)cccc12,active: 49.9%
12,Cc1ccc(NCCc2c([N+](=O)[O-])cc([N+](=O)[O-])cc2[N+](=O)[O-])cc1,inactive: 94.8%
13,CCCOP(=S)(Nc1nc(N)cc(=O)[nH]1)OCCC,inactive: 97.7%
14,COc1cc(C2NCCC3(OCCO3)C2(C)C)cc(OC)c1OC (stereo not given),inactive: 106%
15,CCOP(=O)(Nc1cccc2ccccc12)OCC,inactive: 101%
16,O=C(OC1CN2CCC1CC2)c1ccc(Cl)cc1 (stereo not given),inactive: 99%
17,COc1cc(C(=O)NCC2(N3CCOCC3)CCCCC2)cc(Cl)c1OC(C)C,inactive: 104%
18,O=[As](O)(O)c1cccnc1,inactive: 104%
19,O=[As](O)(c1cccc(O)c1)c1cccc(O)c1,inactive: 101%
20,Cc1cccc(OCC(=O)OC2CN3CCC2CC3)c1 (stereo not given),inactive: 100%
21,CC(C)/C=N\N=C(\N)N[N+](=O)[O-],inactive: 98.5%
22,CN(C(=O)Cc1ccc(Cl)c(Cl)c1)[C@@H]1CCCC[C@H]1N1CCCC1,inactive: 103%
23,O=[As](O)(c1ccccc1Br)c1ccccc1Br,inactive: 103%
24,O=P1(Nc2ccccn2)COc2ccccc2OC1,inactive: 101%
25,CCOP(=O)(Nc1ccc(C)cn1)OCC,inactive: 97%
26,Clc1n[nH]nc1-c1nn[nH][15n]1,inactive: 97.9%
27,CC(C)(C)C(=O)NC(Sc1ncccn1)C(Cl)(Cl)Cl (stereo not given),inactive: 101%
28,O=P1(Nc2ncccn2)COc2ccccc2OC1,inactive: 101%
29,Nc1cccc([As](=O)(O)c2ccccc2)c1,inactive: 102%
30,O=P1(Nc2ccc(Br)cn2)COc2ccccc2OC1,inactive: 101%
